{"source": "PubChem BioAssay AID463212", "about": "(Sanford-Burnham Center for Chemical Genomics, 2010)", "note": "The list shows a part of the results, in another mix than the full data. Some tests of the compounds listed are not included; inactive here does not mean inactive elsewhere. Active and inactive are the calls of the source.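 The calls were made as follows: active = growth inhibition of the mutant yeast at or above 50%; inactive = the rest.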"}
{"assay": "growth inhibitors of tim23-1 mutant yeast, primary screen, luminescence, uHTS (AID 463212);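 also: temperature-sensitive mutant grown at 25 °C; plate controls were DMSO-treated mutant yeast for no effect and medium wells lacking yeast for full effect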", "details": "S. cerevisiae tim23-1 growth, BacTiter-Glo luminescence, 24 h; at 20 µM; active compounds read high"}
{"compound": "O=C(OC1CN2CCC1CC2)C(CO)(c1ccccc1)c1ccccc1", "note": "(centres undefined)", "inhibition": "inactive: -2.77%"}
{"compound": "COc1ccc(Br)c(C(=O)NCC2(N3CCCCC3)CCCCC2)c1", "inhibition": "inactive: 23.1%"}
{"compound": "CC(C)Oc1ccc(C(=O)NCC2(N(C)C)CCCCC2)cc1", "inhibition": "inactive: 11.5%"}
{"compound": "CN(C)c1cccc(C(=O)NCC2(N(C)C)CCCCC2)c1", "inhibition": "inactive: 5.42%"}
{"compound": "CN(C)C1(CNC(=O)c2ccc(Br)cc2)CCCCC1", "inhibition": "inactive: 10.5%"}
{"compound": "COc1cc(C(=O)NCC2(N(C)C)CCCCC2)c([N+](=O)[O-])cc1OC", "inhibition": "inactive: 11.2%"}
{"compound": "COc1ccc(Cl)cc1C(=O)NCC1(N(C)C)CCCCC1", "inhibition": "inactive: 4.15%"}
{"compound": "COc1cccc(C(=O)NCC2(N3CCCCC3)CCCCC2)c1", "inhibition": "inactive: 8.93%"}
{"compound": "O=C(NCC1(N2CCCCC2)CCCCC1)c1cccc(Cl)c1", "inhibition": "inactive: -5%"}
{"compound": "CN(C)C1CCCC1OC(=O)C(O)(c1ccccc1)c1ccccc1", "note": "(centres undefined)", "inhibition": "inactive: 14.3%"}
{"compound": "CN(C)c1ccc(C(=O)NCC2(N(C)C)CCCCC2)cc1", "inhibition": "inactive: 0.6%"}
{"compound": "Cc1ccccc1C(=O)NCC1(N2CCCCC2)CCCCC1", "inhibition": "inactive: 25.6%"}
{"compound": "O=C(NCC1(N2CCCCC2)CCCCC1)c1cc(F)c(F)cc1Cl", "inhibition": "inactive: -6.48%"}
{"compound": "C=CCN1CCN(CCOC(=O)C(O)(c2ccccc2)c2ccccc2)CC1", "inhibition": "inactive: 4.44%"}
{"compound": "COc1ccc(C(=O)NCC2(N(C)C)CCCCC2)cc1", "inhibition": "inactive: 5.32%"}
{"compound": "O=C(NCC1(N2CCCCC2)CCCCC1)c1cccc(Br)c1", "inhibition": "inactive: 1.07%"}
{"compound": "Cc1cc(C(=O)NCC2(N3CCCCC3)CCCCC2)ccc1[N+](=O)[O-]", "inhibition": "inactive: 24.6%"}
{"compound": "CCN1CCCC(OC(=O)C2(O)c3ccccc3C=Cc3ccccc32)C1", "note": "(centres undefined)", "inhibition": "inactive: 18.4%"}
{"compound": "O=C(NCC1(N2CCCCC2)CCCCC1)c1cc([N+](=O)[O-])ccc1Cl", "inhibition": "inactive: 18.7%"}
{"compound": "CN1[C@@H]2CC[C@H]1CC(OC(=O)C(O)(c1ccccc1)c1ccccc1)C2", "note": "(some centres undefined)", "inhibition": "inactive: -18%"}
{"compound": "COc1cc(SC)ccc1C(=O)NCC1(N(C)C)CCCCC1", "inhibition": "inactive: -1.52%"}
{"compound": "CCN(CC)CC(C)C(C)OC(=O)C(O)(c1ccccc1)c1ccccc1", "note": "(centres undefined)", "inhibition": "inactive: 10.4%"}
{"compound": "CC(C)N1C(=O)CC2(CCN(CCOC(=O)C(O)(c3ccccc3)c3ccccc3)CC2)C1=O", "inhibition": "inactive: -20.6%"}
{"compound": "Cc1ccc(C(=O)NCC2(N3CCCCC3)CCCCC2)cc1", "inhibition": "inactive: -9.74%"}
